Earlier results on 1 substance are cited in PMC4154802 (European journal of nuclear medicine and molecular imaging, 2011).

This data set concerns high HER2 expression tumors. To be noted: in vivo.

As for “^18F-trastuzumab-Fab: 18F-labeled trastuzumab Fab, 50 kDa”, the tumor uptake is 1.31 %ID/g.
